Experimental data: ChEMBL document CHEMBL1221209
Only a part of the results on these compounds is given; other tests are left out.

Protein sequences, listed by entry. Tags and fused reporters are not part of them.
UniProt O35678, whole entry: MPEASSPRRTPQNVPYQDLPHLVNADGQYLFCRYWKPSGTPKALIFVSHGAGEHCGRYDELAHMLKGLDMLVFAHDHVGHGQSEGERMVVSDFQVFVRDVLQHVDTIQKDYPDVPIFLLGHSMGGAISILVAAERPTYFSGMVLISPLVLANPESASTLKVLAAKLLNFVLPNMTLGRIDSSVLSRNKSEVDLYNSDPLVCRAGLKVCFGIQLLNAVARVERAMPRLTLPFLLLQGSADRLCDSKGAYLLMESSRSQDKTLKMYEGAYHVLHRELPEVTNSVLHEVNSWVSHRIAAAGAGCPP
UniProt O08914, whole entry: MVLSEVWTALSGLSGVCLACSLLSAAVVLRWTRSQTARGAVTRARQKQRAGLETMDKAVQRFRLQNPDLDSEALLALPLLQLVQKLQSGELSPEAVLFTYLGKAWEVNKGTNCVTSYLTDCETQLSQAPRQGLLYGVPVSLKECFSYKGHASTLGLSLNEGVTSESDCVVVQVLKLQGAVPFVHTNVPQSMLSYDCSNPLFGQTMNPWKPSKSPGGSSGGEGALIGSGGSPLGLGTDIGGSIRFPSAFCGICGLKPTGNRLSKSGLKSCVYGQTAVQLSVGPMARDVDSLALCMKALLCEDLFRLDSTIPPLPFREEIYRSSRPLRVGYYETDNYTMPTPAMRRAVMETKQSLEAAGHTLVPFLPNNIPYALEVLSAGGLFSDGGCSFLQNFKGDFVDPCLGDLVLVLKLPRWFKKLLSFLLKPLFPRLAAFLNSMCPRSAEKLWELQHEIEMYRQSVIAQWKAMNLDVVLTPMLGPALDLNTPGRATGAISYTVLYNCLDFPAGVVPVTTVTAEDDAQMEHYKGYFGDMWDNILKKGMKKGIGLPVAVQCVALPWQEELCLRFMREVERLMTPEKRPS

Assays:
Brain [1] = experiment: Disruption of endocannabinoid metabolism in Swiss Webster mouse brain expressing KIAA1363 gene assessed as unsaturated C18:2 fatty acid level per gram of tissue at 100 mg/kg, ip after 4 hrs; details: route intraperitoneal, strain Swiss Webster
Brain [2] = experiment: Disruption of endocannabinoid metabolism in KIAA1363 deficient Swiss Webster mouse brain assessed as arachidonic acid level per gram of tissue at 100 mg/kg, ip after 4 hrs; details: route intraperitoneal, strain Swiss Webster
Brain [3] = experiment: Disruption of endocannabinoid metabolism in Swiss Webster mouse brain expressing KIAA1363 gene assessed as N-palmitoyl-ethanolamine level per gram of tissue at 100 mg/kg, ip after 4 hrs; details: route intraperitoneal, strain Swiss Webster
Brain [4] = experiment: Disruption of endocannabinoid metabolism in Swiss Webster mouse brain expressing KIAA1363 gene assessed as saturated C22:0 lipid level per gram of tissue at 100 mg/kg, ip after 4 hrs; details: route intraperitoneal, strain Swiss Webster
Brain [5] = experiment: Disruption of endocannabinoid metabolism in Swiss Webster mouse brain expressing KIAA1363 gene assessed as arachidonic acid level per gram of tissue at 100 mg/kg, ip after 4 hrs; details: route intraperitoneal, strain Swiss Webster
Brain [6] = experiment: Disruption of endocannabinoid metabolism in KIAA1363 deficient Swiss Webster mouse brain assessed as unsaturated C20:4 fatty acid level per gram of tissue at 100 mg/kg, ip after 4 hrs; details: route intraperitoneal, strain Swiss Webster
Brain [7] = experiment: Disruption of endocannabinoid metabolism in KIAA1363 deficient Swiss Webster mouse brain assessed as saturated C18:0 fatty acid level per gram of tissue at 100 mg/kg, ip after 4 hrs; details: route intraperitoneal, strain Swiss Webster
Brain [8] = experiment: Disruption of endocannabinoid metabolism in Swiss Webster mouse brain expressing KIAA1363 gene assessed as 2-arachidonylglycerol level per gram of tissue at 100 mg/kg, ip after 4 hrs; details: route intraperitoneal, strain Swiss Webster
Brain [9] = experiment: Disruption of endocannabinoid metabolism in KIAA1363 deficient Swiss Webster mouse brain assessed as unsaturated C24:1 fatty acid level per gram of tissue at 100 mg/kg, ip after 4 hrs; details: route intraperitoneal, strain Swiss Webster
Brain [10] = experiment: Disruption of endocannabinoid metabolism in Swiss Webster mouse brain expressing KIAA1363 gene assessed as unsaturated N-oleoyl-ethanolamine level per gram of tissue at 100 mg/kg, ip after 4 hrs; details: route intraperitoneal, strain Swiss Webster
Brain [11] = experiment: Disruption of endocannabinoid metabolism in Swiss Webster mouse brain expressing KIAA1363 gene assessed as unsaturated C20:4 fatty acid level per gram of tissue at 100 mg/kg, ip after 4 hrs; details: route intraperitoneal, strain Swiss Webster
Brain [12] = experiment: Disruption of endocannabinoid metabolism in Swiss Webster mouse brain expressing KIAA1363 gene assessed as saturated C18:0 fatty acid level per gram of tissue at 100 mg/kg, ip after 4 hrs; details: route intraperitoneal, strain Swiss Webster
Brain [13] = experiment: Disruption of endocannabinoid metabolism in KIAA1363 deficient Swiss Webster mouse brain assessed as N-palmitoyl-ethanolamine level per gram of tissue at 100 mg/kg, ip after 4 hrs; details: route intraperitoneal, strain Swiss Webster
Brain [14] = experiment: Disruption of endocannabinoid metabolism in KIAA1363 deficient Swiss Webster mouse brain assessed as saturated C22:0 fatty acid level per gram of tissue at 100 mg/kg, ip after 4 hrs; details: route intraperitoneal, strain Swiss Webster
Brain [15] = experiment: Disruption of endocannabinoid metabolism in KIAA1363 deficient Swiss Webster mouse brain assessed as anandamide level per gram of tissue at 100 mg/kg, ip after 4 hrs; details: route intraperitoneal, strain Swiss Webster
Brain [16] = experiment: Disruption of endocannabinoid metabolism in KIAA1363 deficient Swiss Webster mouse brain assessed as 2-arachidonylglycerol level per gram of tissue at 100 mg/kg, ip after 4 hrs; details: route intraperitoneal, strain Swiss Webster
Brain [17] = experiment: Disruption of endocannabinoid metabolism in Swiss Webster mouse brain assessed as N-palmitoyl-ethanolamine level per gram of tissue at 4 mg/kg, ip after 4 hrs; details: route intraperitoneal, strain Swiss Webster
Brain [18] = experiment: Disruption of endocannabinoid metabolism in Swiss Webster mouse brain assessed as unsaturated C24:1 fatty acid level per gram of tissue at 4 mg/kg, ip after 4 hrs; details: route intraperitoneal, strain Swiss Webster
Brain [19] = experiment: Inhibition of anandamide hydrolysis in Swiss Webster mouse brain at 4 mg/kg, ip after 4 hrs; details: route intraperitoneal, strain Swiss Webster
Brain [20] = experiment: Disruption of endocannabinoid metabolism in Swiss Webster mouse brain assessed as saturated C22:0 fatty acid level per gram of tissue at 4 mg/kg, ip after 4 hrs; details: route intraperitoneal, strain Swiss Webster
Brain [21] = experiment: Disruption of endocannabinoid metabolism in Swiss Webster mouse brain assessed as unsaturated N-oleoyl-ethanolamine level per gram of tissue at 4 mg/kg, ip after 4 hrs; details: route intraperitoneal, strain Swiss Webster
Brain [22] = experiment: Disruption of endocannabinoid metabolism in Swiss Webster mouse brain assessed as anandamide level per gram of tissue at 4 mg/kg, ip after 4 hrs; details: route intraperitoneal, strain Swiss Webster
Brain [23] = experiment: Disruption of endocannabinoid metabolism in Swiss Webster mouse brain assessed as 2-arachidonylglycerol level per gram of tissue at 4 mg/kg, ip after 4 hrs; details: route intraperitoneal, strain Swiss Webster
Brain [24] = experiment: Inhibition of 2-arachidonylglycerol hydrolysis in Swiss Webster mouse brain at 4 mg/kg, ip after 4 hrs; details: route intraperitoneal, strain Swiss Webster
Brain [25] = experiment: Disruption of endocannabinoid metabolism in Swiss Webster mouse brain assessed as arachidonic acid level per gram of tissue at 4 mg/kg, ip after 4 hrs; details: route intraperitoneal, strain Swiss Webster
Monoglyceride lipase = Monoglyceride lipase (Mus musculus, UniProt O35678); experiment: Displacement of 2-arachidonylglycerol from MAGL in Swiss Webster mouse brain after 5 mins; details: strain Swiss Webster
[26] = target: Fatty-acid amide hydrolase 1 (Mus musculus, UniProt O08914); experiment: Displacement of [3H]anandamide from FAAH in Swiss Webster mouse brain after 5 mins

CCOP(=S)(OCC)Oc1nc(Cl)c(Cl)cc1Cl
Activity (Brain [1]): 18 pmol/g
Activity (Brain [2]): 17 nmol/g
Activity (Brain [3]): 1280 pmol/g
Activity (Brain [4]): 120 pmol/g
Activity (Brain [5]): 34 nmol/g
Activity (Brain [6]): 19 pmol/g
Activity (Brain [7]): 779 pmol/g
Activity (Brain [8]): 19 nmol/g
Activity (Brain [9]): 191 pmol/g
Activity (Brain [10]): 651 pmol/g
Activity (Brain [11]): 19 pmol/g
Activity (Brain [12]): 651 pmol/g
Activity (Brain [13]): 1510 pmol/g
Activity (Brain [14]): 160 pmol/g
Activity (Brain [15]): 0.019 nmol/g
Activity (Brain [16]): 54 nmol/g

CCOP(=O)(OCC)Oc1nc(Cl)c(Cl)cc1Cl
Activity (Brain [17]): 810 pmol/g
Activity (Brain [18]): 47 pmol/g
inhibition (INH) (Brain [19]): 82%
Activity (Brain [20]): 29 pmol/g
Activity (Brain [21]): 535 pmol/g
Activity (Brain [22]): 0.011 nmol/g
Activity (Brain [23]): 40 nmol/g
inhibition (INH) (Brain [24]): 75%
Activity (Brain [25]): 30 nmol/g

CCOP(=O)(OCC)Oc1ccc([N+](=O)[O-])cc1
IC50 (Monoglyceride lipase): 1.2 µM
IC50 [26]: 5.9 µM
